Test results: US7557215B2, “Anthraquinone compounds as anti cancer compounds” (Somanta Limited, priority 2003, dated 2009)

System: A2780
Experiment: Inhibition of cell growth, A2780 wild type ovarian carcinoma cell line
Details: text b286; for IC50: read-out: IC50 of di-N-oxides (order of cytotoxicity)

Substance	IC50	cytotoxicity ratio (CR=IC50 of alkylaminoanthraquinone-di-N-oxide/IC50 alkylaminoanthraquinone)
1,4-Bis-{[2-(2-chloromethylpiperidin-1-yl-N-oxide)ethyl]amino}-5,8-dihydroxyanthracene-9,10-dione [CAQ192MN]	8 µM	44
1-{[2-(2-Chloromethylpyrrolidin-1-yl-N-oxide)ethyl]amino}-4-{[(2-dimethylamino-N-oxide)ethyl]amino}-5,8-dihydroxyanthracene-9,10-dione [CAQ181MN]	38 µM	1293
1-{[2-(3-Chloropiperidin-1-yl-N-oxide)ethyl]amino}-4-{[(2-dimethylamino-N-oxide)ethyl]amino}-5,8-dihydroxyanthracene-9,10-dione [CAQ167MN]	36 µM	4167
1-{[2-(4-Chloropiperidin-1-yle-N-oxide)ethyl]amino}-4-{[(2-dimethylamino-N-oxide)ethyl]amino}-5,8-dihydroxyanthracene-9,10-dione [CAQ179N]	46 µM	80
